The source of these data is patent US4962119A, “Triazole derivatives of fenamates as antiinflammatory agents” (Warner-Lambert Company, priority 1989, dated 1990).

Amino acid sequences for entries named in this document (tags omitted). Residues count along the entry.
UniProt Q63921, 27-602: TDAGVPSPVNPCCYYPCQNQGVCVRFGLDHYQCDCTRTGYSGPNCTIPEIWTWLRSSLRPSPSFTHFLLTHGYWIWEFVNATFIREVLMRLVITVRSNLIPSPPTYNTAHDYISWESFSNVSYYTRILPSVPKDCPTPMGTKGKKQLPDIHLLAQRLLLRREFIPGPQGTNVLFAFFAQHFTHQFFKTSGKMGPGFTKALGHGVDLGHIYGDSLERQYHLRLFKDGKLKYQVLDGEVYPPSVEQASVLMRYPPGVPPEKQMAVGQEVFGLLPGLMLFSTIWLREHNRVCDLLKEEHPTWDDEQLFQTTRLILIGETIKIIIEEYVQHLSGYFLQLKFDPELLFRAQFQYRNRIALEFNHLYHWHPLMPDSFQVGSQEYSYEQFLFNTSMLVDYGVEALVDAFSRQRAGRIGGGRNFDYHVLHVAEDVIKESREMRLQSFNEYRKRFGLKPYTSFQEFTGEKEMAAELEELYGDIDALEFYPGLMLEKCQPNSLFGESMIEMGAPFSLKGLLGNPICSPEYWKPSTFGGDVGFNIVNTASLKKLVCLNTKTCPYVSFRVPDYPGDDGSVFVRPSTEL

For orientation: IC50 means the concentration at which inhibition is half-maximal.

The target in the assay is Cyclooxygenase (Rattus norvegicus, UniProt Q63921). The assay can be described thus: cell-based. As for the experimental part:
The rat basophilic leukemia cell line (RBL-1) was obtained from the American Type Culture Collection (Rockville, Md.).
All tissue culture media were obtained from GIBCO (Grand Island, N.Y.).
RBL-1 cells are grown in suspension culture in Eagle's minimum essential medium supplemented with 12% fetal bovine serum at 37° C. in an incubator supplied with air-5% carbon dioxide. Cells are harvested by centrifugation. They are washed with cold phosphate buffered saline pH 7.4 (PBS; NaCl, 7.1 g; Na2 HPO4, 1.15 g; KH2 PO4, 0.2 g; and KCl, 0.2 g/l). […] The reaction is stopped by chilling the tubes on ice for ten minutes. Cells are separated by centrifugation and the supernatant is stored at -20°.

Take `FC(F)(F)c1cccc(Nc2ccccc2-c2n[nH]c(S)n2)c1` [Example 4, 5-[2-[(3-trifluoromethylphenyl)amino]phenyl]-2,4-dihydro-3H-1,2,4-triazole-3-thione]: half-maximal inhibition (IC50) required 510 nM.
